# Experimental data from patent US10017555B2, “Long-acting blood sugar decreasing fusion protein” (Genor Biopharma Co., Ltd., priority 2013, dated 2018).
# T1: GLP-1R on the surface of β-TC-6 cells (Mus musculus, UniProt O35659)
# T1 construct: host or cells: β-TC-6 mouse beta pancreatic tumor cells (fixed)
# T1 sequence (O35659 22-463): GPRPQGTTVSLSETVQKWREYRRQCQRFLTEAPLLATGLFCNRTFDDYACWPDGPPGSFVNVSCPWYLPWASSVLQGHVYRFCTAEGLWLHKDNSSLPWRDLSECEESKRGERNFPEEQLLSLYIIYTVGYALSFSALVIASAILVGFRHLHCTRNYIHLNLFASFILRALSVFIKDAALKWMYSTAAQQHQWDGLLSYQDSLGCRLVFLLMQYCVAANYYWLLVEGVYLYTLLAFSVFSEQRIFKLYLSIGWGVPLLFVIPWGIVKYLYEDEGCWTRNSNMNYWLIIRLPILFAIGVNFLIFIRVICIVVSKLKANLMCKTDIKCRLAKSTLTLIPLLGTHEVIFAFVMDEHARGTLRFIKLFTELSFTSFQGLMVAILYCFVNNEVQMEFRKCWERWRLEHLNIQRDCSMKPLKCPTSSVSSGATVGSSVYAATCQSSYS
# Target: T1, GLP-1R on the surface of β-TC-6 cells
# Assay: In vitro binding activity of the fusion protein to β-TC-6 cells
# Settings: fixed β-TC-6 cells, 4-fold dilutions from 500 μg/ml, absorbance 450/570 nm, FIG. 4
# Description: An assay for the direct binding activity of the fusion protein to GLP-1 receptor (GLP-1R)-positive mouse beta pancreatic tumor cells (β-TC-6) was performed according to the method described in PLoS ONE. 2010, 5 (9): e12734.
# 8.5×10^6 of mouse beta pancreatic tumor cells β-TC-6 (purchased from ATCC) were collected, centrifuged and fixed with 8.5 ml of fixative (IC Fixation buffer, purchased from Invitrogen Co.) (4° C., 10 min). The resultant cells were centrifuged again, resuspended with 3.4 ml of PBS, and seeded at a density of 2.5×10^5 cells/well (100 μl) in a 96-well U-shaped plate. In the meantime, the three fusion proteins of the present invention were diluted 4-fold with PBS starting from 500 μg/ml to obtain a total of 10 gradients, respectively.
# The cells in the 96-well U-shaped plate were centrifuged and the supernate was removed. The diluted fusion proteins were added at 100 μl/well into the plate, and then the plate was incubated at 4° C. for 1 hour. The cells were centrifuged again to remove the supernate, and washed with 200 μl/well of PBS twice. […] The absorbance at a wavelength of 450/570 nm was read on a M5 multifunctional microplate reader (purchased from Molecular Devices Co.), and the results are shown in FIG. 4.
row,Molecule,binding activity to GLP-1R on the surface of β-TC-6 cells
1,"GLP-1-Fc-1: Human GLP-1 (7-37) mutant fused via peptide linker to IgG2 Fc, SEQ ID NO: 4, hinge VECPPCP (protein) MELGLSWIFLLAILKGVQCHGEGTFTSDVSSYLEEQAAKEFIAWLVKGGGGGGGSGGGGSGGGGSVECPPCPAPPVAGPSVFLFPPKPKDTLMISRTPEVTCVVVDVSHEDPEVQFNWYVDGVEVHNAKTKPREEQFNSTFRVVSVLTVVHQDWLNGKEYKCAVSNKGLPAPIEKTISKTKGQPREPQVYTLPPSREEMTKNQVSLTCLVKGFYPSDIAVEWESNGQPENNYKTTPPMLDSDGSFFLYSKLTVDKSRWQQGNVFSCSVMHEALHNHYTQKSLSLSPGK",specific binding activity
2,"GLP-1-Fc-3: Human GLP-1 (7-37) mutant fused via peptide linker to IgG2 Fc, SEQ ID NO: 6, hinge VECPPCP, C-terminal K deleted (protein) MELGLSWIFLLAILKGVQCHGEGTFTSDVSSYLEEQAAKEFIAWLVKGGGGGGGSGGGGSGGGGSVECPPCPAPPVAGPSVFLFPPKPKDTLMISRTPEVTCVVVDVSHEDPEVQFNWYVDGVEVHNAKTKPREEQFNSTFRVVSVLTVVHQDWLNGKEYKCKVSNKGLPAPIEKTISKTKGQPREPQVYTLPPSREEMTKNQVSLTCLVKGFYPSDIAVEWESNGQPENNYKTTPPMLDSDGSFFLYSKLTVDKSRWQQGNVFSCSVMHEALHNHYTQKSLSLSPG",specific binding activity
